# AlphaSeq binding of Ab-14 light chain variants to a spike HR2 peptide

Target peptide (SARS-CoV-2 spike, HR2 region): PDVDLGDISGINAS

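The parent was found by panning a naive human phage display library on the peptide. The variants were designed computationally from a first round of random CDR variants and then made and measured. Several design methods are mixed in this list. The scFvs were displayed on barcoded MATa yeast, the peptide on MATalpha yeast. Pairs that bind mate more often; barcode pairs of the diploids are counted by sequencing. Read counts were normalised to the haploid input and turned into Kd by a linear fit to BCL2-family pairs of known affinity, for each replicate. Mating was done six times.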

Parent scFv Ab-14: VH joined to VL by three GGGGS repeats. Changes lie in the light chain CDRs alone.
VH: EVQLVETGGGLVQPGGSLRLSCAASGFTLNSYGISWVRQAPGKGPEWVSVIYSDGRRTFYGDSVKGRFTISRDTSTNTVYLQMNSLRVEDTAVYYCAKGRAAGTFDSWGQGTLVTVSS
VL: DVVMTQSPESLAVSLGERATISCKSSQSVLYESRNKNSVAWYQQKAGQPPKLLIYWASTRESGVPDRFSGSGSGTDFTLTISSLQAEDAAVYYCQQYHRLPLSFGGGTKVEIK

The parent's light chain CDRs are KSSQSVLYESRNKNSVA, WASTRES, QQYHRLPLS; each variant's own CDRs replace them letter for letter. This list holds designs with more than six substitutions. The read-out is the apparent dissociation constant on a log10 scale (nM): the lower, the stronger. A mean of the replicates is given; it leaves out those without a signal. "ND" means that the variant was in the library but no mating with the target was seen in that replicate; the authors take this as a sign of poor binding, and no number exists. Empty control strains, which show no peptide, gave a signal in 4% of pairings with all light chain designs; the median was 2.64 and 95% of these signals were weaker than 1.59. No background was subtracted.

For HVAHASLESNAKMNSVA / NEACLAI / QQYHRLPLA, the assay gave 0.73, 1.61, ND, 0.91, 1.50, 0.94 (mean 1.14). The variant QINMEMYHDLNDAQNVA / DAMTEIK / QQYNRLPLS showed 0.27, 0.39, 0.18, -0.09, 0.09, 0.66 (mean 0.25). The variant MIHESYGLMQVKQSSIA / DNSTRED / QQYDRLPLS gave ND, ND, ND, ND, ND, ND. The variant HLTDTVMQGSYYKNSVA / QESTRAD / QQYHRLPLS showed 0.62, 0.02, 0.00, 0.22, 0.04, -0.03 (mean 0.15). With KIEWFSQDNRLTISAIA / EASTIYQ / QQYGHLPLS the result was 1.08, 1.80, ND, 0.60, ND, 1.57 (mean 1.26). With KIGMTLNQLQHKKNNVA / DLVMREN / QQYFRLPLS the result was 1.61, ND, 2.84, 1.33, ND, 1.53 (mean 1.83). For MVYQATLMGTSTRNSIA / NAQMRPD / QQYHRLPLI, the assay gave 1.10, 1.18, 1.56, 1.81, 2.54, 1.23 (mean 1.57). For QLFHKWGQLDNIAYNVA / DATTVID / QQYMRLPIT, the assay gave 1.82, ND, 1.78, 0.73, 1.39, 1.64 (mean 1.47).

The variant KISTLTLYESVNKNNVA / EMSTRPS / QSYHRLPLS gave 1.23, 0.79, 1.05, 0.73, 1.97, 1.06 (mean 1.14). The variant NLDLFIPSQKEWDASIA / GATLRPT / QDYARLPLS gave 2.12, 1.15, 1.66, 2.56, 1.93, 2.23 (mean 1.94). For KLSQYVGGESRNKSSLA / DNSTREA / QQYHRLPLS, the assay gave 0.98, 0.97, 0.94, 0.76, 0.78, 1.06 (mean 0.91). The variant KLSMSDLYESRMSNSVA / MASTREK / QQYHRLPLS gave 0.49, 0.35, 0.43, 0.31, -0.11, 0.12 (mean 0.27). The variant KIYQLGLGSQKIMNNIA / QTSIREL / QSYNRLPLS gave 0.73, 0.37, 0.67, 0.47, 0.61, 1.20 (mean 0.68). For KLQLNVVDGWAMHRNIA / GDNHRAD / QQYYNLPLM, the assay gave 0.98, 0.85, 0.91, 0.76, 0.69, 0.94 (mean 0.86). With MISQLFNMGQFAINSVA / QASTRNS / QQYDRLPLM the result was 1.24, 1.64, 0.68, 1.36, 0.58, 2.08 (mean 1.26). With KIGGTLNTLMHQKNNVA / DLVEREN / QQYFRLPLS the result was 0.18, 0.09, 0.29, 0.04, 0.14, 0.32 (mean 0.18).

With KVQISWLMSSRNKNQVA / HASMRES / QQYHRLPLS the result was 1.12, 0.46, 0.59, 0.62, 0.67, 0.80 (mean 0.71). For QLSMITGHYSMIKNNVA / EMETREN / QQYDRLPLS, the assay gave 2.11, 2.47, 1.68, 1.89, 1.33, 1.92 (mean 1.90). With KLSQADWYESRNKWSVA / EASLREQ / QQYHRLPLS the result was 0.62, 0.70, 0.35, 0.10, 0.65, 0.88 (mean 0.55). The variant KIGHGLTTEMYNRNSVA / QTETRVD / QHYHRLPLS showed ND, ND, ND, ND, 2.77, 2.60 (mean 2.68). For KIGLTLNTLMHQKNNVA / DLVTREN / QQYHRLPLS, the assay gave 0.19, -0.10, -0.08, 0.09, -0.08, -0.16 (mean -0.02). With KSSYSVDTESQDKNSVA / NASTRES / KQYHRLMLS the result was ND, ND, ND, ND, ND, ND. The variant KLQFSCEYESRNKNSVA / MASTRCV / QQYHRLPLS showed 1.18, 0.75, 0.64, 0.98, 0.88, 1.35 (mean 0.96). For NISESMYFQSVMKNNIA / EMSTRER / QHYHRLPLS, the assay gave ND, ND, ND, 1.98, ND, ND.

For TLMFDGEQSDSENKAIA / DAIHKGV / QQYNRLPLT, the assay gave 1.70, 1.39, 2.33, 1.06, 1.32, 2.53 (mean 1.73). For KLSATYRYESQNKNSIA / EMSTREE / QCYHRLPLS, the assay gave 1.74, 0.92, 0.95, 1.59, 1.42, 1.86 (mean 1.41). The variant IISGSMWMESRNKNSVA / NAETREY / QHYDRLPLS gave ND, ND, ND, ND, ND, 3.47. With IVSQLMLWGHLAKNSIA / EAENRLN / QQYDRLPLF the result was ND, 1.25, 1.35, 1.00, 1.19, 0.63 (mean 1.08). For NLDKHDYESRQMINAIA / DMSTLMA / QQYASLPLD, the assay gave 1.32, 2.04, 1.19, 1.58, 1.70, 1.34 (mean 1.53). The variant HITMGMYVHGRHHSSIA / QAETREK / QQYDRLPLI gave ND, 2.05, 2.21, 2.37, 1.72, 2.28 (mean 2.13). The variant HISMITLQGMRARNSVA / QMTTREN / QQYDRLPLA showed 1.28, 1.55, 0.71, 1.64, 1.35, 0.78 (mean 1.22). With GVDHTMYSAQEAPNSIA / NAEQTNI / QQYARLPLS the result was ND, ND, 1.14, 1.04, 0.59, ND (mean 0.93).

The variant SITQLVGYGQRNKNSVA / QMSTREN / QQYDRLPLS showed -0.02, 0.48, -0.30, 0.23, 0.01, 0.31 (mean 0.12). The variant QVVDEQWAEGQNISSIA / EGEVMKD / QQYNRLPLS showed ND, ND, 2.66, 3.32, ND, ND (mean 2.99). The variant KLSQATRMESRNKASVA / ENSTRES / QQYFRLPLS gave 1.05, 0.47, 0.72, 0.49, 1.38, 1.37 (mean 0.91). For KLYEMSYELSGKTHSVA / DNSTRGD / QQYFRLPLE, the assay gave 0.60, 0.66, 1.09, 0.34, 0.53, 0.72 (mean 0.66).

4 of these entries, quoted again:

Variant KLQLNVVDGWAMHRNIA / GDNHRAD / QQYYNLPLM showed 0.98, 0.85, 0.91, 0.76, 0.69, 0.94 (mean 0.86).
Variant MVYQATLMGTSTRNSIA / NAQMRPD / QQYHRLPLI showed 1.10, 1.18, 1.56, 1.81, 2.54, 1.23 (mean 1.57).
Variant KIYQLGLGSQKIMNNIA / QTSIREL / QSYNRLPLS showed 0.73, 0.37, 0.67, 0.47, 0.61, 1.20 (mean 0.68).
Variant KIGMTLNQLQHKKNNVA / DLVMREN / QQYFRLPLS showed 1.61, ND, 2.84, 1.33, ND, 1.53 (mean 1.83).

In the paper, a design with two or fewer of six values counts as a poor binder. Values of this round are not directly comparable with the first-round values of the same sequences.

Reference: Li et al. 2023, doi:10.1038/s41467-023-39022-2. File: FLAb, binding data.